# S100A4 inh HTS: blocks human S100A4 binding to myosin IIA peptide; P26447; S100A4/TAMRA-MyoIIA peptide fluorescence polarization; inhibition, % at 10.7 µM; hit rate 0.14% among 360,000; AID 652163;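 active means mean inhibition of at least 70% across replicates, with every replicate also reaching that level; inconclusive means mean inhibition reaches 70% but some replicates fall short; inactive means mean inhibition below 70%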
#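 Test system – S100A4 monomer (human) · Compound – single-point compound testing · Schedule – 5 min incubation before reading · Probe or stimulus – TAMRA-labelled myosin IIA heavy-chain peptide probe, 5 nM · Benchmarks – neutral control DMSO, positive control TFP · Medium – Calcium-containing HEPES buffer, pH 7.2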
# ERAP1 inh: blocks human ERAP1 aminopeptidase activity; Q9NZ08; recombinant ERAP1, Leu-AMC fluorescence, 60 min; inhibition, % at 10.7 µM; hit rate 0.15% among 340,000; AID 652197;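 active means mean replicate inhibition of at least 30%, or all replicates individually reaching that 30% level; inactive means mean below 30% and not every replicate reaching it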;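 further: 0% = neutral control wells and 100% = L-leucinethiol positive control wells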
# Yeast UUG start: modulators of yeast start codon fidelity, primary screen, whole organism, S. cerevisiae, single point, plate reader; activity score, % at 18.7 µM; actives 0.13% (n = 350,000); S. cerevisiae UUG-firefly luciferase reporter, luminescence/redox ratio;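 active = replicate mean at a twofold rise or more, about +100% in these data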;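 also: firefly luciferase made from a UUG start codon reports start codon fidelity; reporter light over untreated wells divided by growth signal over untreated wells; some hits fall short of that in this replicate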
# E-sel inducer: E-selectin induction on HUVECs; P16581; HUVEC E-selectin immunofluorescence imaging; normalized: neutral wells 0, TNF-alpha wells 100; activation, % at 7.58 µM; hit rate 0.37% among 260,000;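 active means mean E-selectin-positive cell signal at least 10% of the positive control, reached in at least 60% of replicates, without over 20% cell loss; inconclusive means no rule given, readout overlaps actives, possibly toxicity-flagged; inactive means the rest, including those meeting only one limit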
#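 Test system: HUVEC | Signal: Immunofluorescence imaging | Read-out: Percent E-selectin-positive cells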
# MLL AF4-AF9 inh: MLL-AF4/AF9 protein interaction inhibition; P42568; inhibition, % at 10 µM; hit rate 0.47% among 350,000; AlphaScreen, biotin-AF4 peptide binding to FLAG-AF9;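 active means every replicate reaching a set inhibition limit, whatever the replicate mean, cut at about 25% in these data; inconclusive means mean inhibition reaches that limit but some replicates miss it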;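 further: 0% = plate neutral control median and 100% = total signal loss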
# ARNT-TACC3 inh: disruptors of human ARNT/TACC3 interaction; Q9Y6A5; AlphaScreen His-ARNT PAS-B/GST-TACC3 binding, luminescence; TACC3 fragment carries E629A point mutation; inhibition, % at 9.99 µM; hit rate 0.66% among 390,000;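 active means mean inhibition of replicates at least 50% and at least half of replicates each reaching 50%; inconclusive means half or more replicates reach 50% but mean below 50%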;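 further: 0% = complete ARNT plus TACC3 wells and 100% = ARNT alone without TACC3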
# Alpha interfer: interferes with the AlphaScreen assay signal | AlphaScreen interference counter-screen, signal luminescence | AC50, µM (top dose mostly 12 µM), for the others: at the highest dose activity change, negative = inhibition | AID 720494 | hit rate 45% among 530 | shares compounds with MLL AF4-AF9 inh; cut-off not given, nearly all actives have AC50 up to about 14 µM
# Numbers without * were called inactive; ? = inconclusive; · = no result given. Only some compounds are listed: those with a hit (about 1.3% of all), similar ones and a draw of the others.
SMILES,S100A4 inh HTS,ERAP1 inh,Yeast UUG start,E-sel inducer,MLL AF4-AF9 inh,ARNT-TACC3 inh,Alpha interfer
CN(C)c1ccc(/C=C/C=C/c2sc3ccccc3[n+]2C)cc1,-81,10,15,70*,61*,23,3.7µM*
CN(C)c1ccc(Cc2ccc(N(C)C)cc2)cc1,-10,-1,-17,0,46*,·,9.3µM*
Cc1ccc(OC(=O)N(C)C[C@H]2OCc3ccccc3-c3c(n(C)c4ccccc34)C(=O)N([C@H](C)CO)C[C@@H]2C)cc1,5,1,·,-2,8,·,·
COC(=O)C[C@@H]1CC[C@H]2NC[C@H](O)COC[C@@H]2O1,-4,-3,-7,0,-3,-2,·
NC(N)=N/N=C/c1cn(-c2ccccc2)nc1-c1cccs1,-5,-2,·,-2,31*,22,-24%
COC(=O)[C@@H]1[C@@H](CO)[C@@H]2Cn3c(ccc(C4=CCCCC4)c3=O)[C@H]1N2Cc1ccccc1OC,-5,-1,·,0,4,·,·
CC(C)CC#Cc1ccc([C@H]2[C@@H](CO)N3CCCCN(C(=O)Cc4ccccn4)C[C@H]23)cc1,-2,0,17,0,4,-5,·
CCN(CC)c1ccc(C(=C2C=CC(=[N+](CC)CC)C=C2)c2ccccc2)cc1,1,13,·,0,76*,23*,1.1µM*
CCN(CC)c1ccccc1,-3,-2,-10,·,·,·,·
COc1ccc(OC(=O)N(C)C[C@@H]2OCc3ccccc3-c3c(n(C)c4ccccc34)C(=O)N([C@@H](C)CO)C[C@H]2C)cc1,33,1,·,0,3,·,·
CC1(C)CC(Nc2ccc(Nc3ccccc3)cc2)CC(C)(C)N1,-7,-1,·,0,76*,·,13µM*
O=C(CCN1CC1)OCCOC(=O)CCN1CC1,22,0,-24,-1,?,-2,-15%

# Grouped by structure, the compounds so far containing sulfur (two)
SMILES,S100A4 inh HTS,ERAP1 inh,Yeast UUG start,E-sel inducer,MLL AF4-AF9 inh,ARNT-TACC3 inh,Alpha interfer
CN(C)c1ccc(/C=C/C=C/c2sc3ccccc3[n+]2C)cc1,-81,10,15,70*,61*,23,3.7µM*
NC(N)=N/N=C/c1cn(-c2ccccc2)nc1-c1cccs1,-5,-2,·,-2,31*,22,-24%

# Screens as filed in PubChem.
